Laboratory results from publication PMC9848257, “Design and synthesis of novel rigid dibenzo[b,f]azepines through ring closure technique as promising anticancer candidates against leukaemia and acting as selective topoisomerase II inhibitors and DNA intercalators” (Journal of Enzyme Inhibition and Medicinal Chemistry, 2023).

Molecular target: topoisomerase II
Assay: Topoisomerase II inhibitory assay
Type: biochemical
Details: in vitro, doxorubicin co-assayed as reference
Protocol: All the promising anticancer closed analogues (5a–g) were then investigated to measure the topoisomerase II inhibitory effect using the reported procedure by Patra et al.[36] and doxorubicin as a reference drug.
Therefore, following the procedure reported by Patra et al., the topoisomerase II activity was evaluated. Doxorubicin, an FDA-approved topoisomerase II inhibitor, was co-assayed as a reference. The IC50 values of the tested congeners and doxorubicin were recorded and represented in Table 2.

- IC50: 3.45 µM
- IC50 (listed as doxorubicin): 3.44 ± 0.19 µM
Structure (SMILES): COc1cccc2c1C(=O)c1c(O)c3c(c(O)c1C2=O)C[C@@](O)(C(=O)CO)C[C@@H]3O[C@H]1C[C@H](N)[C@H](O)[C@H](C)O1 [Doxorubicin, reference compound]
